Tested on: P. aeruginosa clinical isolates
Parameters: species or system Pseudomonas aeruginosa
Conditions: predicted from mutations and resistance genes found by array in 60 isolates

## CC(C)(O/N=C(\C(=O)N[C@@H]1C(=O)N2C(C(=O)[O-])=C(C[n+]3ccccc3)CS[C@H]12)c1csc(N)n1)C(=O)O [Ceftazidim, ceftazidime]
  Cumulative resistance predicttion deduced from array: 40%
